Results: PubChem BioAssay (NCI)
Several values for one entry are separate records, joined by “and”; a condition that tells them apart may be missing. Equal entries are not always repeated. The list shows a part of the results, in another mix than the full data. The source holds several records for some structures; these can differ, active in one and inactive in another. Activity calls are given as the source filed them. Rule as the data show it: active = growth inhibition above about 70%; inactive = the rest.

Key:
[1] = NCI Yeast Anticancer Drug Screen. Data for the rad50 strain (AID 155);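 also: 0% = growth of vehicle-only cultures of the same strain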; details: S. cerevisiae rad50 strain growth inhibition; at 50.0 µM; stronger effect = higher value
[2] = NCI Yeast Anticancer Drug Screen. Data for the mec2-1 strain (AID 157); details: S. cerevisiae mec2-1 strain, at 50.0 µM, stronger effect = higher value
[3] = NCI Yeast Anticancer Drug Screen. Data for the sgs1 mgt1 strain (AID 161);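 also: 0% = growth of cultures given vehicle only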; details: S. cerevisiae sgs1 mgt1 strain, at 50.0 µM, stronger effect = higher value
[4] = NCI Yeast Anticancer Drug Screen. Data for the cln2 rad14 strain (AID 165);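 also: 0% = growth equal to vehicle treated cultures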; details: S. cerevisiae cln2 rad14 strain, at 50.0 µM, stronger effect = higher value
[5] = NCI Yeast Anticancer Drug Screen. Data for the bub3 strain (AID 167); details: S. cerevisiae bub3 mutant strain, at 50.0 µM, stronger effect = higher value
[6] = NCI Yeast Anticancer Drug Screen. Data for the mlh1 rad18 strain (AID 175); details: S. cerevisiae mlh1 rad18 strain growth inhibition; at 50.0 µM; stronger effect = higher value

Measured: growth inhibition

CCOP(=O)(OCC)OP1OCC(C)(C)CO1
inactive: [1] -25.4% | [2] -29.9% | [3] -27.9% | [4] -1.8% | [5] -49.5% | [6] -24.6%

CC1(C)CC[P+](CCC[P+]2(c3ccccc3)CCC(C)(C)c3ccccc32)(c2ccccc2)c2ccccc21 (stereo not given)
inactive: [1] -6.7% | [2] -11.6% | [3] -10.3% | [4] -27.8% | [5] -1.5% | [6] 6.9%

O=C(Nc1ccc(Br)cc1)NP(=O)(Nc1ccccc1)Nc1ccccc1
inactive: [1] -8.85% | [2] 2.9% | [3] -1.1% | [4] -20.3% | [5] 11.9% | [6] -11.7%

COC(=O)CC[N+]1(C)CC1
inactive: [1] 28.6% | [2] 9% | [3] 24.4% | [4] -31.4% | [5] -8% | [6] 25.8%

COc1cc([N+](=O)[O-])c([N+](=O)[O-])cc1OC
inactive: [1] 24.8% | [2] -4.1% | [3] 12.4% | [4] -8.7% | [5] 0.35% | [6] 31.5%

CN(CCCl)CCCn1ccnc1[N+](=O)[O-]
inactive: [1] 5.85% | [2] -28.3% | [3] 9.9% | [4] 0.35% | [5] 1.65% | [6] -8.4%

CN(N=O)C1=NC(c2ccccc2Cl)P(=O)(Nc2ncccn2)O1 (stereo not given)
inactive: [1] -5.45% | [2] -21.4% | [3] -16.7% | [4] 9.2% | [5] 5.85% | [6] 12.9%

CC(=O)NC1C(O)OC(CS[As](C)C)C(O)C1O (stereo not given)
inactive: [1] 10.2% | [2] 3.85% | [3] -7.55% | [4] -8.9% | [5] 4.75% | [6] -35.4%

CN=P(c1ccccc1)(c1ccccc1)c1ccccc1
inactive: [1] 47.2% | [2] 11.1% | [3] 40.3% | [4] 0.25% | [5] -5.75% | [6] -9.85%

O=C1C(O)=C([N+](=O)[O-])C(=O)C(O)=C1[N+](=O)[O-]
inactive: [1] 3.55% | [2] 25.6% | [3] 10.6% | [4] 1.65% | [5] 16.9% | [6] 31%

CC(O)COc1ccc([As](=O)(O)O)cc1N (stereo not given)
inactive: [1] -14.8% | [2] -42.4% | [3] -19.4% | [4] -6.15% | [5] -13.8% | [6] -23.9%

Cc1ccc(CNCCI)cc1C
inactive: [1] 8.55% | [2] 2.5% | [3] 36.5% | [4] -6.35% | [5] 10.1% | [6] 7.5%

CS(=O)(=O)OCCCOP(N)(=O)N(CCCl)CCCl (stereo not given)
inactive: [1] 20.5% | [2] 3.65% | [3] 4.75% | [4] -20.6% | [5] -5.4% | [6] -12.8%

O=[N+]([O-])c1cccc(/C=N/Nc2ccc([N+](=O)[O-])cc2[N+](=O)[O-])c1
inactive: [1] -15.8% | [2] -23.1% | [3] -4.75% | [4] -42.1% | [5] 4.65% | [6] -16.1%

O=c1c2c3c(sc2nc2n1CC(CBr)S2)CCCC3 (stereo not given)
inactive: [1] 63.8% | [2] 34.6% | [3] 33.6% | [4] 27.1% | [5] 56.2% | [6] 40%

C[C@H](N[N+](=O)[O-])C(N)=O
inactive: [1] 7.65% | [2] -4.45% | [3] 22.9% | [4] 11.1% | [5] 22.4% | [6] 22.4%

CSP1(SC)=NP(Cl)(Cl)=NP(Cl)(Cl)=N1
active: [1] 86.2% | [2] 97.4% | [3] 86.2% | [4] 97.5% | [5] 99.5% | [6] 85.8%

NC(=O)CNc1ccc([As](=O)(O)O)cc1
inactive: [1] 7.1% and -5.5% | [2] 16.6% and -5% | [3] 2.9% and 11.2% | [4] -3.15% and -38.4% | [5] 13.7% and 18% | [6] -17.8% and -1.5%

Nc1ccc([As](O)O)cc1
inactive: [1] 26.1% | [2] 24.4% | [3] 20.9% | [4] 20.8% | [5] 9.1% | [6] 27.1%

Nc1ccccc1[As](=O)(O)O
inactive: [1] -3.7% | [2] -12.9% | [3] -23.4% | [4] -2.95% | [5] -28.2% | [6] -28.6%

CCCCCCCCCCCCCCCCCC(=O)OCC(COP(=O)(Oc1ccccc1)N(CCCl)CCCl)OC(=O)CCCCCCCCCCCCCCCCC (stereo not given)
inactive: [1] 5.35% | [2] 7.55% | [3] 7.85% | [4] -1.35% | [5] -3.2% | [6] 7.8%

Nc1c([N+](=O)[O-])cc(Cc2cc([N+](=O)[O-])c(N)c([N+](=O)[O-])c2)cc1[N+](=O)[O-]
inactive: [1] 31.8% | [2] 7.95% | [3] 11.9% | [4] 13.7% | [5] -6.1% | [6] 16.1%

C[N+]1([O-])C2CCC1CC(OC(=O)C(CO)c1ccccc1)C2 (stereo not given)
inactive: [1] 22.2% | [2] 11.8% | [3] 37.8% | [4] -51.8% | [5] 6.45% | [6] 13.4%

CCCCCCC(C)OP(O)OC(C)CCCCCC (stereo not given)
inactive: [1] 2% | [2] 19.6% | [3] 0.9% | [4] -21.8% | [5] 23.3% | [6] 18.4%

CN1C(=O)N(C)P(=O)(c2ccccc2)P1c1ccccc1 (stereo not given)
inactive: [1] 10.9% | [2] -3.35% | [3] 12.8% | [4] 4.6% | [5] 9% | [6] 17.4%

[N-]=[N+]=Nc1ccc([N+](=O)[O-])c(C(=O)O)c1
inactive: [1] -4.75% | [2] 12.4% | [3] -1.3% | [4] -73.7% | [5] 3.55% | [6] 0.9%

CCCCC(CC)COP(O)OCC(CC)CCCC (stereo not given)
inactive: [1] 10.8% | [2] -7.8% | [3] 1.4% | [4] -53.8% | [5] -2.9% | [6] 23.3%

COc1cccc([N+](=O)[O-])c1[N+](=O)[O-]
inactive: [1] 21.8% | [2] -28.6% | [3] -11.2% | [4] -2.65% | [5] 4.05% | [6] 17.2%

CC(C)NC(C)C
inactive: [1] 2% | [2] -11.3% | [3] 1.55% | [4] -4.35% | [5] -4.05% | [6] 3.8%

CN1C(C)(C)C(Br)C(=O)C(Br)C1(C)C (stereo not given)
inactive: [1] -4% | [2] -12% | [3] -5.05% | [4] 1.25% | [5] 2.4% | [6] 2.75%

CCN(CC)Cc1ccc(N(CCCl)CCCl)cc1
inactive: [1] 4.3% | [2] 8.6% | [3] -8.85% | [4] 35.6% | [5] 14.7% | [6] 14.7%

[N-]=[N+]=NCC(N)=O
inactive: [1] -3.1% | [2] -10.8% | [3] -2.5% | [4] -4.05% | [5] 1.35% | [6] -3.3%

Cc1ccccc1OP(=O)(Cl)Oc1ccccc1C
inactive: [1] -12% | [2] -42% | [3] -0.7% | [4] 9.4% | [5] -36% | [6] -8.7%

CC1(C)COP(=O)(N(CCCl)CCCl)OC1
inactive: [1] 0% | [2] 8.3% | [3] -8.1% | [4] 11.7% | [5] -1.95% | [6] 6.15%

O=P(Cl)(Oc1ccccc1)c1ccccc1 (stereo not given)
inactive: [1] 25.1% | [2] 7.35% | [3] 4.2% | [4] 9.15% | [5] 14.3% | [6] 0.9%

NC(CC(=O)O)C(=O)O (stereo not given)
inactive: [1] 4.8% | [2] -15.3% | [3] 4.9% | [4] -1.5% | [5] 16.1% | [6] -3.65%

CCCCCCCCCC(=O)OCC(COP(=O)(Oc1ccccc1)N(CCCl)CCCl)OC(=O)CCCCCCCCC (stereo not given)
inactive: [1] 15.3% | [2] 12.1% | [3] 2.95% | [4] 8.95% | [5] 6.3% | [6] 7%

CC(=O)SCC(Br)C(N)=O (stereo not given)
inactive: [1] 25.1% | [2] 11.1% | [3] 15.4% | [4] -14.8% | [5] -0.65% | [6] -5.8%

CCCSC1CCOP(=O)(N(CCCl)CCCl)N1C (stereo not given)
inactive: [1] 10.8% | [2] -0.75% | [3] 7.8% | [4] 1.7% | [5] 7.6% | [6] 28.6%

COc1ccc(CN2CCCN(Cc3ccc(OC)cc3)P2(=O)Cl)cc1
inactive: [1] 7.2% | [2] 11.1% | [3] 22.2% | [4] 1.35% | [5] -12.6% | [6] 28.2%
